{
  "source": "patent US10016519B2",
  "about": "“18F-tagged inhibitors of prostate specific membrane antigen (PSMA), their use as imaging agents and pharmaceutical agents for the treatment of prostate cancer” (DEUTSCHES KREBSFORSCHUNGSZENTRUM, priority 2014, dated 2018)",
  "key": {"[1]": {"tested_on": "BALB/c nu/nu mice bearing LNCaP tumor", "experiment": "Organ distribution", "type": "in vivo", "settings": "1 h after injection, tail vein, 60 pmol, n=3", "protocol": "The F-18 labeled compounds were injected via tail vein (1-2 MBq per mouse; 60 pmol). At 1 h after injection, the animals were sacrificed. Organs of interest were dissected, blotted dry, and weighed. The radioactivity was measured with a gamma counter (Packard Cobra II, GMI, Minnesota, USA) and calculated as % ID/g."}, "[2]": {"tested_on": "mice bearing LNCaP tumor xenografts", "experiment": "Dynamic microPET imaging", "protocol": "FIG. 9: PET imaging of PSMA-1001. Whole-body coronal microPET images of an athymic male nude mice bearing LNCaP tumor xenografts. The tumor-targeting efficacy and pharmacokinetic properties of ^18F-PSMA-1001 were evaluated by dynamic microPET scans. Approximately 15 MBq/mouse were injected. […] The values are expressed as mean SUV (standardized uptake values).\nWhole-body coronal microPET images of an athymic male nude mice bearing LNCaP tumor xenografts. […] Approximately 15 MBq/mouse were injected. […] The values are expressed as mean SUV (standardized uptake values).\nFor in vivo experiments, 8 week old BALB/c nu/nu mice were subcutaneously inoculated into the right trunk with 5×10^6 LNCaP- or PC3-cells in 50% Matrigel. When the size of tumor was approximately 1 cm^3, the radiolabeled compound was injected via the tail vein (ca. 30 MBq, 60 pmol for μPET imaging; ca. 1 MBq, 60 pmol for organ distribution).\nFor the microPET studies, 10-25 MBq of the radiolabeled compounds in a volume of 0.15 mL (˜60 pmol) were injected via a lateral tail vein into mice bearing LNCaP tumor xenografts. The anesthetized animals (2% sevoflurane, Abbott, Wiesbaden, Germany) were placed in prone position into the Inveon small animal PET scanner (Siemens, Knoxville, Tenn., USA) to perform dynamic microPET scans and 20 min-static scans."}},
  "data": [
    {"substance": "(Glu)-(Urea)-((D)-Lys)-(2-Naphthylalanine)-(4-(Aminomethyl)benzoic acid)-FN [PSMA-1003]", "values": [
      {"measurement": "Organ distribution, Kidney, Mean", "setting": "[1]", "result": 32.4, "unit": "% ID/g"},
      {"measurement": "Organ distribution, LNCaP Tumor, Mean", "setting": "[1]", "result": 3.4, "unit": "% ID/g"},
      {"measurement": "Organ distribution, Liver, Mean", "setting": "[1]", "result": 3.0, "unit": "% ID/g"},
      {"measurement": "Organ distribution, Small intestine, Mean", "setting": "[1]", "result": 8.5, "unit": "% ID/g"},
      {"measurement": "Tumor uptake SUV", "setting": "[2]; LNCaP tumor xenograft, at 57 minutes", "result": 0.9},
      {"measurement": "Uptake in the liver (microPET)", "setting": "[2]; LNCaP xenograft mice", "result": "still high"}
    ]}
  ]
}
